Source: patent US6974804B2, “Esters” (Unilever Home & Personal Care USA, division of Conopco, Inc., priority 2000, dated 2005)

Assay: Light transmission at 580 nm (% T)
Type: physicochemical
Conditions: gel in 60:40 w/w Silkflo 364:DC245
Experimental: The translucency of a composition may be measured by placing a sample of standardised thickness in the light path of a spectrophotometer and measuring transmittance, as a percentage of light transmitted in the absence of the gel.
This test was carried out using a dual-beam spectrophotometer. The sample of composition was poured hot into a 4.5 ml cuvette made of poly(methyl-methacrylate) (PMMA) and allowed to cool to an ambient temperature of 20-25° C. Such a cuvette gives a 1 cm thickness of composition. […] A transmittence measured at any temperature in the range from 20-25° C. is usually adequately accurate, but measurement is made at 22° C. if more precision is required.

% T [%] | Substance
48 | cellobiose heptanonanoate monocyclohexanoate [Ex 1.10]
38 | cellobiose heptanonanoate monocyclohexanoate [Ex 1.12]
41 | cellobiose heptanonanoate monocyclohexanoate [Ex 1.13]
22 | cellobiose heptanonanoate monocyclohexanoate [Ex 1.14]
26 | cellobiose heptanonanoate monocyclohexanoate [Ex 3.1]
34 | cellobiose heptanonanoate monocyclohexanoate [Ex 3.2]
